From PubChem
Sampled rows, rich in hits. Any-hit rate of the full collection: about 2.1%.
Glioma ERSR ind = inducers of ER stress response in human glioma cells; AID 602332; 420,000 tested, 0.02% active; U87-MG GRP78 promoter luciferase reporter, 16 h; Potency, µM, for the others: at the highest dose activation, usual class: activators; further: potency means the concentration at half of the fitted maximal effect; series mostly up to about 76 µM; % of control where 0% means no effect; nearly all actives have a fitted effect of over 35% in size
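Stably transfected U87-MG human glioma cells carrying a GRP78-based luminescent sensor were seeded at 1000 cells/well, pin-dosed with compounds and incubated 16 h. Luciferase reagent was then added, and end-point luminescence was read after 10 min at room temperature.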
Nrf2 inh = blocks Nrf2 signaling; A549 ARE-Fluc reporter, luciferase luminescence, 18-24 h; Potency, µM (highest dose often 46 µM), inactives show at the top dose activity change, negative = inhibition, most hits filed as inhibitors; 360,000 tested, 2.1% active; AID 504444; further: potency means the concentration at half of the fitted maximal effect; on the % scale 0 is the no-effect control and ±100 the full control effect; nearly all actives have a fitted effect of over 60% in size
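A549 ARE_Fluc cells, 5000/well, 5% FBS OPTI-MEM; compounds in dose-response, 18-24 h at 37 °C/5% CO2; CellTiter-Fluor viability read (Ex 405/Em 525), then BugLite luciferase luminescence = Nrf2 activity.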
Nrf2 activator = activators of Nrf2 (ARE) signaling. AREc32 ARE-luciferase reporter (MCF7-derived line), luminescence, 24 h. Potency, µM (top dose mostly 46.1 µM), for the others: at the top dose activation, actives largely listed as activators. 410,000 tested, 0.31% active; further: potency means the concentration at half of the fitted maximal effect; % of control where 0% means no effect; nearly all actives have a fitted effect of over 65% in size
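ARE activation measured as luciferase luminescence (Steady-Glo, 30 min RT) in AREc32_Fluc cells after 24 hr compound exposure at 37 deg C, 5% CO2; cells seeded overnight at 1000/well in OPTI-MEM, 5% FBS.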
miR-21 reporter = miR-21 reporter, rising signal | AID 2288 | HeLa miR-21 FLuc reporter, luciferase, 48 h | 340,000 tested, under 10 active | Potency, µM (doses to about 38.3 µM), for inactives: at the top dose reporter change, positive = more light; active = well fitted rising curve with a large enough effect; inconclusive = small, poorly fitted or top-dose-only effect; inactive = no such curve, though single readings can be large or run the other way;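 note: % of control where 0% means no effect; miR-21 action dims this reporter so a rising signal means less miR-21 action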
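HeLa cells endogenously expressing miR-21, stably carrying CMV-driven firefly luciferase with a downstream miR-21 binding site, 2000 cells/well. Titrations up to approximately 40 uM, 48 hours; luciferase luminescence read.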
PTAP TSG101 blk = blocks PTAP/TSG101 interaction to inhibit HIV-1 budding; Fluorescence polarization, FITC-PTAP peptide / Tsg101 binding; AID 493005; Q99816; 340,000 tested, under 10 active; Potency, µM (titrated, usually from 115 µM), for the others: at the highest dose activity change, negative = inhibition, actives largely listed as inhibitors; active means well fitted inhibition curve with a large enough effect in the main read-out, with a control signal flat, not every such curve was filed as active; inconclusive means small, poorly fitted or top-dose-only effect, or effect the other way, or a change in a side signal; inactive means no such curve, though single readings can be large or run the other way; further: potency means the concentration at half of the fitted maximal effect; % of control where 0% means no effect
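Steps: Tsg101 binding domain dispensed (10 uM final), compounds pinned in DMSO, FITC-labeled PTAP-motif peptide added (50 nM final); after 20 min binding at room temperature, polarization measured.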
A549 viability = counter-screen for Nrf2 inhibitors: cytotoxicity in A549 cells; A549 ARE-Fluc cells, CellTiter-Fluor viability, 18-24 h; Potency, µM (highest dose often 46 µM), without a hit: top-dose activity change, negative = cytotoxicity, most hits filed as inhibitors; 390,000 tested, 0.16% active; further: potency means the concentration at half of the fitted maximal effect; on the % scale 0 is the no-effect control and ±100 the full control effect
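A549 ARE-Fluc cells in 5% FBS OPTI-MEM, 5000 cells/well, rested 2 h then exposed to compounds in concentration-response for 18-24 h at 37 °C. Viability by CellTiter-Fluor fluorescence (Ex 405/Em 525) after 30 min; luciferase luminescence (BugLite, 15 min, RT) read afterwards.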
* marks the source's active call; other numbers are inactive results; ? = inconclusive; . = not tested or not shown; [ ] = another dose, or the depositor's remark. Unless noted, the call rests on the fitted dose curve; in most records, active means well fitted curve in the direction sought with a large enough effect; inconclusive means small, poorly fitted or top-dose-only effect, or another doubt; inactive means no such curve, though single readings can be large; an effect the other way counts as inactive or inconclusive.

| mol | Glioma ERSR ind | Nrf2 inh | Nrf2 activator | miR-21 reporter | PTAP TSG101 blk | A549 viability |
| --- | --- | --- | --- | --- | --- | --- |
| COc1cc(/C=C2\SC(=O)N(Cc3ccc(Cl)cc3)C2=O)cc([N+](=O)[O-])c1O | -3% | 15µM* | 0% | 4% | -18% | 15µM* |
| CCN1C(=O)/C(=C\C=C\c2ccccc2[N+](=O)[O-])SC1=S | 3% | 17% | 5µM* | 4% | -6% | ? |
| COc1cc(/C=C2\SC(=O)N(Cc3ccc(F)cc3)C2=O)cc([N+](=O)[O-])c1O | 1% | ? | 0%[9.22 µM] | -3% | -7% | ? |
| O=C1/C(=C\c2cccc([N+](=O)[O-])c2O)SC(=S)N1Cc1ccccc1 | -3% | 16µM* | -1% | ? | -5% | ? |
| CSc1nnc(CCNC(=O)c2ccc(-c3cccc(F)c3)cc2)n1-c1ccc(F)cc1 | 2% | . | . | . | . | . |
| COc1cc(CN2CCC3(CCC(CNC(=O)c4cc(C)nn4C)O3)CC2)ccc1F (stereo not given) | 1% | . | . | . | . | . |
| COc1cc2c(cc1O)CCN[C@@]21CS[C@H]2c3c(OC(C)=O)c(C)c4c(c3C(COC1=O)N1C2C2c3c(cc(C)c(OC)c3O)CC([C@@H]1O)N2C)OCO4 (stereo not given in full) | -8% | . | . | . | . | . |
| CC(C)(C)n1ncc2c(=O)n(Cc3cc(F)c(F)cc3Cl)cnc21 | -4% | . | . | . | . | . |
| COc1ccc(-c2ccc3ncnc(NCc4nc(C)cs4)c3c2)cc1OC | . | ? | . | . | . | 4% |
| O=C1CCCC2=C1C(c1ccccc1Cl)N=C(Nc1nc3ccccc3o1)N2 (stereo not given) | . | -7% | . | . | . | -1% |
| Cc1cnc(C)c(-c2cc(F)cc3c2OC(CNC(=O)CN2CCCC2)C3)n1 (stereo not given) | 0% | . | . | . | . | . |
| CCn1c(C)nc2cc(C(=O)N/N=C(\C)c3ccc(OC)cc3O)ccc21 | -6% | 23µM* | 0% | 25% | -3% | -14% |
| CC(C)c1ccc(NS(=O)(=O)c2ccc3[nH]cc(C(=O)NC4CCCCC4)c(=O)c3c2)cc1 | -3% | -19% | -4% | 17% | . | 10% |
| Cc1cc(C)cc(NS(=O)(=O)c2ccc3[nH]cc(C(=O)NCc4ccco4)c(=O)c3c2)c1 | -7% | 16µM* | 0% | ? | -4% | -11% |
| Cc1cc(C)cc(NS(=O)(=O)c2ccc3[nH]cc(C(=O)NC4CCCCC4)c(=O)c3c2)c1 | -7% | 23µM* | -3% | ? | . | -16% |
| CCC(=O)N1N=C(c2ccc(C)cc2)CC1c1ccco1 (stereo not given) | 2% | 0% | 4% | -42% | 0% | -4% |
| CCC(=O)N1N=C(c2c(-c3ccccc3)c3cc(Cl)ccc3[nH]c2=O)CC1c1ccco1 (stereo not given) | -4% | 23µM* | 3% | 23% | 1% | ? |
| CCC(=O)N1N=C(c2ccc(NS(=O)(=O)c3ccc(C)cc3)cc2)CC1c1ccco1 (stereo not given) | -7% | 18µM* | 0% | . | 1% | -19% |
| O=C(CNC(=O)c1ccc(Cl)cc1)OC(C(=O)Nc1cc(C(F)(F)F)ccc1Cl)c1ccccc1 (stereo not given) | . | 4% | . | . | . | ? |
| COc1ccc(-c2nc3ccc(C4=C(C)CC(=O)NN4)cc3[nH]2)cc1 | -2% | . | . | . | . | . |
| COc1ccc(NS(=O)(=O)c2ccc(N3CCCCC3)c(N)c2)cc1 | 0% | 6.5µM* | 6% | . | -10% | -8% |
| COc1ccc(NS(=O)(=O)c2cc(NC(=O)C3CC3)ccc2N2CCCCC2)cc1 | -4% | 16µM* | 1% | 16% | -4% | -15% |
| CC(=O)Nc1ccc(N2CCOCC2)c(S(=O)(=O)Nc2ccccc2Cl)c1 | 2% | . | 0% | . | . | . |
| O=C(Nc1cccc(C(F)(F)F)c1)Nc1ccc(N2CCCC2)c(S(=O)(=O)Nc2ccccc2Cl)c1 | -4% | 3.3µM* | 0% | ? | -1% | ? |

Exported with values under each structure: part of the list above
Values in the order – Glioma ERSR ind	Nrf2 inh	Nrf2 activator	miR-21 reporter	PTAP TSG101 blk	A549 viability
> O=C(CNC(=O)c1ccc(Cl)cc1)OC(C(=O)Nc1cc(C(F)(F)F)ccc1Cl)c1ccccc1 (stereo not given)
  .	4%	.	.	.	?
> COc1ccc(-c2nc3ccc(C4=C(C)CC(=O)NN4)cc3[nH]2)cc1
  -2%	.	.	.	.	.
> COc1ccc(NS(=O)(=O)c2ccc(N3CCCCC3)c(N)c2)cc1
  0%	6.5µM*	6%	.	-10%	-8%

Additional results follow:
| mol | Glioma ERSR ind | Nrf2 inh | Nrf2 activator | miR-21 reporter | PTAP TSG101 blk | A549 viability |
| --- | --- | --- | --- | --- | --- | --- |
| COc1ccccc1NS(=O)(=O)c1cc(NC(=O)c2cccnc2)ccc1N1CCCCC1 | -6% | 21µM* | 3% | . | -1% | -14% |
| O=S1(=O)N=C(Oc2ccc3ccccc3c2)c2ccccc21 | . | 1% | . | . | . | -6% |
| COC(=O)c1cc(CNC(=O)c2cccc(C)c2)cc(NC(=O)c2ccncc2)c1 | -5% | . | . | . | . | . |
| O=[N+]([O-])c1ccc(C2=Nc3cc(Cl)ccc3OC2)cc1 | -3% | ? | 13µM* | -27% | 2% | -5% |
| CC(/C=N/n1c(C2CCCCC2)n[nH]c1=S)=C\c1ccccc1 | 1% | 18µM* | -1% | 0% | -3% | . |
| Cc1cc2c(s1)c1cnn(Cc3ccccc3F)c(=O)c1n2Cc1ccccc1F | . | -16% | . | . | . | 6% |
| COc1ccccc1NC(=O)N(Cc1ccco1)Cc1cc2cc(C)cc(C)c2[nH]c1=O | -6% | 23µM* | 0% | 5% | -4% | ? |
| C=CCN(CC=C)c1ccc(/C=C/c2ccnc3ccccc23)cc1 | 4% | . | . | . | . | . |

Molecules from the list above with a CF3 group (two):
| mol | Glioma ERSR ind | Nrf2 inh | Nrf2 activator | miR-21 reporter | PTAP TSG101 blk | A549 viability |
| --- | --- | --- | --- | --- | --- | --- |
| O=C(CNC(=O)c1ccc(Cl)cc1)OC(C(=O)Nc1cc(C(F)(F)F)ccc1Cl)c1ccccc1 (stereo not given) | . | 4% | . | . | . | ? |
| O=C(Nc1cccc(C(F)(F)F)c1)Nc1ccc(N2CCCC2)c(S(=O)(=O)Nc2ccccc2Cl)c1 | -4% | 3.3µM* | 0% | ? | -1% | ? |

Remaining list, next part.
| mol | Glioma ERSR ind | Nrf2 inh | Nrf2 activator | miR-21 reporter | PTAP TSG101 blk | A549 viability |
| --- | --- | --- | --- | --- | --- | --- |
| COc1ccc(OC)c(S(=O)(=O)N2CCN(Cc3ccccc3)CC2)c1 | -1% | 3% | 0% | -4% | -1% | 2% |
| COc1ccc(S(=O)(=O)N2CCN(CCc3ccccc3)CC2)c(OC)c1 | -2% | 16µM* | -1% | 22% | -5% | -8% |
| Cc1c(NC(=O)/C(C#N)=C/c2ccc(-c3ccc(Cl)cc3)o2)c(=O)n(-c2ccccc2)n1C | -4% | ? | 10% | -2% | -8% | 23µM* |
| Cc1ccc(NS(=O)(=O)c2ccc3c(c2)CCCC(=O)N3)cc1C | . | ? | . | . | . | 6% |
| Cc1ccc(NS(=O)(=O)c2ccc(N3CCCC3=O)cc2)cc1C | . | 15µM* | . | . | . | -6% |
| Cc1ccc(NS(=O)(=O)c2ccc3c(c2)CCC(C)(C)O3)cc1C | . | 23µM* | . | . | . | 2% |
| CC(C)=CNNC(=O)c1ccc(O)cc1 | 5% | . | . | . | . | . |
| Cc1cc(C)nc(NC(=NCCc2c[nH]c3ccccc23)NC(=O)C(C)(C)C)n1 | -3% | 21µM* | 0% | 0% | 0% | ? |
| COC(=O)c1ccccc1-c1cc(C)cc2c1OC(CNC(=O)c1cnc(C)cn1)C2 (stereo not given) | 0% | . | . | . | . | . |
| COCCCNc1ncnc2sc(C(=O)N3CCCCC3)c(C)c12 | -5% | . | . | . | . | . |
| Nc1c(C(=O)O)ccc2c1C(=O)c1ccccc1C2=O | 4% | -3% | 1% | 1% | -9% | 18µM* |
